## Antibody variant affinities, Ab-14 light chain, assay B

Values reported by Li et al. 2023, doi:10.1038/s41467-023-39022-2 (FLAb copy).

Target: peptide PDVDLGDISGINAS, taken from heptad repeat 2 (HR2) of SARS-CoV-2 spike.

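Phage display of a naive human antibody library on the peptide gave the parent. This is the validation round: designs drawn from the data on random variants, tested in the same kind of assay. Several design methods are mixed in this list. Affinity was read by AlphaSeq, a pooled yeast mating assay with surface-displayed partners. After mating in shaken culture at 30 °C for 16 h, diploids were selected and their barcode pairs sequenced. The ratio of observed to expected reads was calibrated, replicate by replicate, on BCL2-family standards whose Kd was known from biolayer interferometry. Each pool was mated in six replicate cultures.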

Each scFv is VH, a (GGGGS)3 linker, VL, as in the parent Ab-14, and differs from it in the CDRs of the light chain only.
VH: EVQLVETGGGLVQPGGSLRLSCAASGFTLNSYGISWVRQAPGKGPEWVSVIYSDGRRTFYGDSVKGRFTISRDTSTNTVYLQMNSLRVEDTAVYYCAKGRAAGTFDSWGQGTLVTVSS
VL: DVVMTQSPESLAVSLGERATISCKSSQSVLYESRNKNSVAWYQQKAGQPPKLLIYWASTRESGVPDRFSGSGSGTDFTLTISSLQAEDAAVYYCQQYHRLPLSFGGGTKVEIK

Each variant's VL is given in full.
This list holds designs with at most six substitutions.
Scale: log10 of Kd in nM, estimated from mating counts; low values are strong binders.
A mean of the replicates is given; it leaves out those without a signal.
"nd" means that the variant was in the library but no mating with the target was seen in that replicate; the authors take this as a sign of poor binding, and no number exists.
The authors averaged sequences with at least three values out of six and counted those with two or fewer as poor binders.
Of ten entries with the parent sequence, four were seen in most replicates (averages 0.34 to 2.37), three in one and three in none, so single entries are noisy.
Nonspecific signal, from three strains lacking the peptide, appeared in 4% of pairings of all light chain designs, centred on 2.64 (5% of these signals below 1.59); values are not corrected for it.
The range of this assay differs from that of the first round, and the authors advise against merging the two.

- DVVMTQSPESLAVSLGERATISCKSSQSVLYEFRNTNSVAWYQQKAGQPPKLLIYWASTRISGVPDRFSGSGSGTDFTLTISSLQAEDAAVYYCQTYHKLPLSFGGGTKVEIK = nd, nd, nd, nd, nd, nd
- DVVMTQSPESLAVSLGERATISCKLDQSVDEKSRNKNSVAWYQQKAGQPPKLLIYEASTRESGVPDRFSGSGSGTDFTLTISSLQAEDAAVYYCQQYHRLPLSFGGGTKVEIK = 0.04, -0.27, -0.11, -0.09, -0.03, -0.13 (mean -0.10)
- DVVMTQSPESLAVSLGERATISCKVSQSWLYESRNKNNVAWYQQKAGQPPKLLIYNASQRESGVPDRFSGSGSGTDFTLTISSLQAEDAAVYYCQQYHRLPLSFGGGTKVEIK = -0.30, -0.24, -0.35, -0.38, -0.40, -0.20 (mean -0.31)
- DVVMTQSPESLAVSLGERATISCKSSQSNLYESRNKNSVAWYQQKAGQPPKLLIYWASTRERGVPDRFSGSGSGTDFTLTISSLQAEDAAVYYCQQYHRLPLSFGGGTKVEIK = 1.15, 0.99, 1.07, 1.19, 1.38, 1.36 (mean 1.19)
- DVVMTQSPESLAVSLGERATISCKSSQSVLYESRNKNSVAWYQQKAGQPPKLLIYSASTRESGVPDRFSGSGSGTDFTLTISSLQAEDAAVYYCQQYHRLPLMFGGGTKVEIK = 0.76, 1.45, 1.43, 1.84, 1.19, 1.39 (mean 1.34)
- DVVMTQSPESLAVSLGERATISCKVSQSVSYESFNKNSVAWYQQKAGQPPKLLIYWASTRESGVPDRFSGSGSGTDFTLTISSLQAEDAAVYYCQQYHRLPLSFGGGTKVEIK = nd, nd, nd, nd, nd, 2.80
- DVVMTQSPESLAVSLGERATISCKSSQSVLYESRNKNSVAWYQQKAGQPPKLLIYWAITRMSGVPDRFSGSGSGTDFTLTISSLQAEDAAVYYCQQYHRLPLSFGGGTKVEIK = nd, nd, nd, nd, nd, nd
- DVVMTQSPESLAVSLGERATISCKSSQSYHYESRNKNSVAWYQQKAGQPPKLLIYDASTRESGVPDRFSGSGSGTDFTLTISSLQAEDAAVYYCQQYHRLPLSFGGGTKVEIK = 0.29, 0.34, 0.13, 0.05, 0.24, 0.31 (mean 0.23)
- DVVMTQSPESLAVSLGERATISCKSVQYVGYESRNKNSVAWYQQKAGQPPKLLIYWASTRESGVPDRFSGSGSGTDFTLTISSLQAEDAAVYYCQQYHRLPLSFGGGTKVEIK = nd, 2.25, 0.88, 1.43, 2.50, 2.02 (mean 1.82)
- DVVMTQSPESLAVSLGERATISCKSSQSFLYESQNKNSVAWYQQKAGQPPKLLIYMASTRESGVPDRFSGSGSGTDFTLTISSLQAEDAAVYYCQQYARLPLSFGGGTKVEIK = 0.79, 0.10, 0.25, 0.25, 0.53, 0.47 (mean 0.40)
- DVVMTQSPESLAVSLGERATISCKSSQSVLYEERNKNSVAWYQQKAGQPPKLLIYDASTRPAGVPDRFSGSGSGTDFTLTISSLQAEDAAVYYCQQYHRLPLSFGGGTKVEIK = 0.61, 0.38, 0.52, 0.45, 0.43, 0.65 (mean 0.51)
- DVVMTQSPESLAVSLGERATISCKVQQSVPYESRNKNSVAWYQQKAGQPPKLLIYHASTRESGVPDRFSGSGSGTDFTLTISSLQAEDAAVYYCQQYHRLPLSFGGGTKVEIK = -0.05, -0.14, -0.03, 0.27, -0.09, -0.09 (mean -0.02)
- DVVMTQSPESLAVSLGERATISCKMSQSHNYESRNKNSVAWYQQKAGQPPKLLIYSASTRESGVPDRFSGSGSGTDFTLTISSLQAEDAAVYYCQQYARLPLSFGGGTKVEIK = 0.17, 0.20, 0.11, -0.05, -0.20, 0.11 (mean 0.06)
- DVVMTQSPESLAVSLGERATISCKLPNSSLYESRNKNQVAWYQQKAGQPPKLLIYSASTRESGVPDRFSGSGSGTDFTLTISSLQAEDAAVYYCQQYHRLPLSFGGGTKVEIK = 0.02, -0.11, -0.04, -0.17, -0.22, -0.02 (mean -0.09)
- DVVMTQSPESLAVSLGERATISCKSSQSVLYDSRNKNSVAWYQQKAGQPPKLLIYWASTRESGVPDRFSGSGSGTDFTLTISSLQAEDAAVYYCQQYHRLPLSFGGGTKVEIK = nd, nd, 1.85, nd, 3.98, nd (mean 2.92)
- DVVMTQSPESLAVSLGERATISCKLSQSVLYESRNKNSVAWYQQKAGQPPKLLIYNASTRESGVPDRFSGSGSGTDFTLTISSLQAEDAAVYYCQQYHRLPLKFGGGTKVEIK = 0.09, 0.00, -0.01, 0.08, 0.00, 0.06 (mean 0.04)
- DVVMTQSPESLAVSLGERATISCKFSQSVLYESRNKNSVAWYQQKAGQPPKLLIYWASTRERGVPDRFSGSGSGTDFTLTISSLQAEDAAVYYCQQYHRLPLSFGGGTKVEIK = 3.01, 2.70, 2.39, 2.98, nd, 2.18 (mean 2.65)
- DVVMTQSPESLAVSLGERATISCKLSQSNLYESRNKNSVAWYQQKAGQPPKLLIYNASTRESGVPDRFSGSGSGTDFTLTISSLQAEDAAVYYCQQYHRLPLMFGGGTKVEIK = 0.62, 0.61, 0.21, 0.20, 0.60, 0.40 (mean 0.44)

Excerpt, the final 2 entries:

* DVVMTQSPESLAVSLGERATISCKFSQSVLYESRNKNSVAWYQQKAGQPPKLLIYWASTRERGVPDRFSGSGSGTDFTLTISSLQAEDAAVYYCQQYHRLPLSFGGGTKVEIK -> 3.01, 2.70, 2.39, 2.98, nd, 2.18 (mean 2.65)
* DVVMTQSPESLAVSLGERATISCKLSQSNLYESRNKNSVAWYQQKAGQPPKLLIYNASTRESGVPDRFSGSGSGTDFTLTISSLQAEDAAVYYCQQYHRLPLMFGGGTKVEIK -> 0.62, 0.61, 0.21, 0.20, 0.60, 0.40 (mean 0.44)